## Measured affinities in a library of Ab-14 heavy chain variants

Source: Engelhart et al. 2022 (doi:10.1038/s41597-022-01779-4), MIT Lincoln Laboratory and A-Alpha Bio; data file from the FLAb repository.

The target is the same throughout: PDVDLGDISGINAS, from the HR2 region of SARS-CoV-2 spike.

The variants keep the light chain, the linker and the frameworks of Ab-14 (scFv order VH, three GGGGS repeats, VL).
VH: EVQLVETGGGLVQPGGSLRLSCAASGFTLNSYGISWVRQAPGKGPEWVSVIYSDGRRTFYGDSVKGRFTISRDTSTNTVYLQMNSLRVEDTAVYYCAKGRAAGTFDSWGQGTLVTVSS
VL: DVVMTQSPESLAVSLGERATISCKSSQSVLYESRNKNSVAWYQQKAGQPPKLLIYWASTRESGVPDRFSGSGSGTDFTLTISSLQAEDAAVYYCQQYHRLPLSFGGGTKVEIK

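The parent was found by panning a naive human phage display library on the peptide. AAYL49 was designed without a model: most single CDR substitutions and a random sample of double and triple ones. In AlphaSeq, yeast of one mating type display the scFv and yeast of the other type display the target. After mating in shaken culture at 30 °C for 16 h, diploids were selected and their barcode pairs sequenced. Each replicate has its own calibration line, from reference interactions of the BCL2 family. The assay was run in three technical replicates.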

Variants are written as CDR1, CDR2 and CDR3 of the heavy chain (limits as in the source). Parent: GFTLNSYGIS, VIYSDGRRTFYGDSVK, GRAAGTFDS.
Numbers give log10(Kd / nM), so 0 is 1 nM and 3 is 1 µM. Smaller is tighter.
"n.d." means that the variant was in the library but no mating with the target was seen in that replicate; the authors take this as a sign of poor binding, and no number exists.
Empty control strains, which show no peptide, gave a signal in 15% of pairings with library AAYL49; the median was 4.06 and 95% of these signals were weaker than 2.83. No background was subtracted. Also given: how often the same scFv was detected with the empty control strains, with their mean in brackets.
In this assay the parent's reference entry averaged 0.65; its copy inside this library read 4.11 (one replicate of three).

CDR-H1 | CDR-H2 | CDR-H3 | log10 Kd (nM) by replicate | empty controls
GFTLNSSYIS | VIYSDERRTFYGDSVK | GRAAGTFDS | n.d. n.d. n.d. | 2/9 (3.96)
GFTLNSYAIS | VIYSDGRRCRYGDSVK | GRAAGTFDS | 0.55 1.02 1.17 | 0/9
GFTLNSYGIP | VIMSTGRRTFYGDSVK | GRAAGTFDS | 5.40 n.d. n.d. | 1/9 (3.25)
GFTLDSYSIS | VIYSDGRRTFYGDSVK | GRACGTFDS | n.d. n.d. n.d. | 0/9
NFTLNSYGIS | VIYSDGRRTFYGDSVK | GAAAMTFDS | n.d. n.d. n.d. | 1/9 (3.86)
IFTLNSYGIS | VKYSDGRRTFYGDSVK | GRVAGTFDS | 3.91 n.d. 4.98 | 4/9 (4.38)
GETLNSYGIS | VIYSDGRNTFYGDSVK | GRAAGTFDS | 4.08 n.d. n.d. | 1/9 (3.09)
GFYLNSYGIS | VYYSDGRRTFCGDSVK | GRAAGTFDS | n.d. n.d. n.d. | 0/9
GFTLNSYGIT | VIYSDGRRTFKGDSVK | GRDAGTFDS | n.d. 3.80 3.44 | 4/9 (4.57)
GFTLNSYGIS | VIYNDGRRTFYGDWVK | GRAAGAFDS | n.d. n.d. n.d. | 2/9 (4.00)
GFTGNSYGIS | VIYSDGRRTDYGDSVK | GRAAGTFDN | n.d. n.d. n.d. | 2/9 (3.54)
GFTLNSYIIS | VIYSDGRRTFYGDSVD | GKAAGTFDS | n.d. 4.12 3.43 | 5/9 (4.45)
GFTLNSYGIS | VIYSDGRDTQYGDSVK | CRAAGTFDS | 5.75 n.d. 4.82 | 4/9 (3.81)
GFTLNSYGIS | VIYSDGRRTNYADSVK | GRATGTFDS | 2.23 2.02 2.33 | 6/9 (4.86)
GFTLNSYGCS | VIYSDGRRKFYGDSVK | CRAAGTFDS | n.d. n.d. n.d. | 0/9
GFTLNSEGIS | VCYSDGRRTFYGDSVK | IRAAGTFDS | 5.23 3.94 n.d. | 6/9 (4.35)
NFTLNSYGCS | VIYPDGRRTFYGDSVK | GRAAGTFDS | n.d. n.d. n.d. | 0/9
GFTLNWYGIS | VIYSDGVRTFYGDSVK | GRAYGTFDS | n.d. n.d. n.d. | 0/9
GFTYNSWGIS | VIYSDGRRTFYGDSVK | GRAAGTNDS | 4.25 n.d. n.d. | 2/9 (3.97)
EFPLNSYGIS | VIYSDGRRTFYGDSVK | GRAATTFDS | 5.25 n.d. n.d. | 3/9 (3.98)
GFTLNSYGIS | VIYSDGRRFFYGNSVK | GRAAGTDDS | 4.10 n.d. 2.69 | 2/9 (3.66)
GFTLNSYGIS | VKYSDGRRTTYGDSVK | GRAAGTFSS | n.d. n.d. n.d. | 0/9
GFTLNSYMIS | VIYSDGRRTFYGDSVK | GRAAGQLDS | 4.07 3.74 5.57 | 8/9 (4.62)
GFTLNSYGIS | VIYSKGRRTFYPDSVK | GRAIGTFDS | n.d. 3.53 n.d. | 0/9
GFTLNSYGIS | VIYVDGRLTFYGDSVR | GRAAGTFDS | 2.45 n.d. n.d. | 3/9 (3.47)
GFTINSYGHS | VIYSWGRRTFYGDSVK | GRAAGTFDS | n.d. n.d. n.d. | 1/9 (3.38)
GFTLNSYGIS | VIYSDGRPTFNGDSVK | GRAAGHFDS | n.d. 3.03 4.42 | 4/9 (4.07)
SFTLNSYGIS | VIYSKGRRTFYGDSVQ | GRAAGTFDS | n.d. n.d. n.d. | 0/9
GFTLNSYGIS | VIYSDGHRTFYGRSQK | GRAAGTFDS | 5.74 n.d. 5.42 | 3/9 (3.40)
IFTLNSYGIS | VIYSDGRRTFMGDSVK | GRWAGTFDS | n.d. n.d. n.d. | 1/9 (4.80)

The closing 5 entries, repeated:

{"CDR-H1": "GFTINSYGHS", "CDR-H2": "VIYSWGRRTFYGDSVK", "CDR-H3": "GRAAGTFDS", "log10 Kd (nM) by replicate": "n.d. n.d. n.d.", "empty controls": "1/9 (3.38)"}
{"CDR-H1": "GFTLNSYGIS", "CDR-H2": "VIYSDGRPTFNGDSVK", "CDR-H3": "GRAAGHFDS", "log10 Kd (nM) by replicate": "n.d. 3.03 4.42", "empty controls": "4/9 (4.07)"}
{"CDR-H1": "SFTLNSYGIS", "CDR-H2": "VIYSKGRRTFYGDSVQ", "CDR-H3": "GRAAGTFDS", "log10 Kd (nM) by replicate": "n.d. n.d. n.d.", "empty controls": "0/9"}
{"CDR-H1": "GFTLNSYGIS", "CDR-H2": "VIYSDGHRTFYGRSQK", "CDR-H3": "GRAAGTFDS", "log10 Kd (nM) by replicate": "5.74 n.d. 5.42", "empty controls": "3/9 (3.40)"}
{"CDR-H1": "IFTLNSYGIS", "CDR-H2": "VIYSDGRRTFMGDSVK", "CDR-H3": "GRWAGTFDS", "log10 Kd (nM) by replicate": "n.d. n.d. n.d.", "empty controls": "1/9 (4.80)"}